“And” between values parts separate entries of the source, which are not always exact repeats. Equal values may be shown once. Only a part is listed here, and it is no random draw. Inconclusive results are not listed. The source made the active and inactive calls. The call rests on the fitted dose curve.
On the % scale 0 is the no-effect control and ±100 the full control effect.

The nature of the first assay: qHTS assay to identify small molecule agonists or antagonists of the thyroid stimulating hormone receptor (TSHR) signaling pathway - wild type cell line counter screen (AID 1259384). The settings on record: HEK293 wild type, cAMP HTRF counter-screen, hits give high values; at 92.4 µM (top of the series) unless noted. The text has this:
U.S. Tox21 Program National Center for Advancing Translational Sciences [NCATS] NIH Chemical Genomics Center [NCGC] U.S. Environmental Protection Agency [EPA] National Institutes of Environmental Health Sciences [NIEHS] National Toxicology Program [NTP] U.S. Food and Drug Administration [FDA] Tox21 Assay Overview: TSHR is the receptor for thyrotropin (thyroid stimulating hormone or TSH), a member of the glycoprotein hormone family. TSH is released by the anterior pituitary gland and is the main regulator of thyroid gland growth and development. Upon binding circulating thyrotropin, a G-protein signal cascade activates adenylyl cyclase and […] cAMP concentration is increased. cAMP is a key second messenger involved extensively in cellular signal transduction pathways associated with the majority of G-protein coupled receptors (GPCRs). The activation of these GPCRs by neurotransmitters, lipids, nucleotides, peptides and hormones results in the activation or the inhibition of plasma membrane-bound adenylate cyclase through heterotrimeric G-proteins. A cell-based TSHR-Hek293 assay can be used to identify TSHR agonists. To eliminate the false positive compounds identified from screening a cell-based TSHR-Hek293 cell line, cAMP assay in a wild type Hek293 cells was used as a counter screening.
Tox21 Assay Protocol Summary: Hek293 cells (wild type) were dispensed at 800 cells/4 uL/well in 1536-well white plates using a Multidrop dispenser. After the assay plates were incubated at a 37 C/5% CO2 incubator for 18 hrs, 23 nL of compounds dissolved in DMSO, positive controls or DMSO only was transferred to the assay plate by a pin tool, followed by 1 ul medium containing Ro20-1724. After 30 min of incubation at room temperature, 2.5 ul/well of cAMP-d2 and 2.5 ul/well of anti-cAMP-cryptate were added respectively into the assay plates using a Flying Reagent Dispenser. The plates were incubated at room temperature for 1 hr. The fluorescence intensity in the plates was measured using an Envision plate reader. Each test compound was measured at 15 concentrations and in triplicates.
`O=[N+]([O-])[O-].[NH4+]`: the cAMP activity change was inactive: -0.419% and inactive: 1.33%.
Regarding `CN(C)CCCl`, the cAMP activity change was inactive: -0.329%.
The same measure, in the same setting: the result for `Cc1cccc([N+](=O)[O-])c1[N+](=O)[O-]` reads inactive: 0.912% [at 42.5 µM]; that for `COc1ccc([N+](=O)[O-])cc1[N+](=O)[O-]`, inactive: -0.0677%.
On the same count and under the same terms, to `CCOP(=O)(CC)OCC` belongs inactive: -0.581%; to `CC(C)N(CCO)C(C)C`, inactive: 4.74%; to `O=[N+]([O-])OCC(CO[N+](=O)[O-])(CO[N+](=O)[O-])CO[N+](=O)[O-]`, inactive: -3.4%.
On the same count and under the same terms, the result for `N=C(N)N[N+](=O)[O-]` reads inactive: -1.35%; that for `COP(C)(=O)OC`, inactive: 0.263% and inactive: 1.72%.
Consider `Cc1c([N+](=O)[O-])cccc1[N+](=O)[O-]`, for which the cAMP activity change is inactive: -3.3% and inactive: 5.51%.
Still for that read-out and setting: to `CCN(CC)CCCl` belongs inactive: -0.839%; to `CP(=O)(O)OCCC[Si](O)(O)O`, inactive: -1.21%.
Turning to `CCOP(=O)(CC)Oc1ccc([N+](=O)[O-])cc1` (stereo unspecified), the cAMP activity change is inactive: -7.7% [at 42.5 µM].
For `Cc1ccc([N+](=O)[O-])c([N+](=O)[O-])c1`, the cAMP activity change was inactive: -0.984% and inactive: -17.2%.
Regarding `CC(C)OP(C)(=O)OC(C)C`, the cAMP activity change was inactive: -0.121% and inactive: -2.48%.
Same read-out and setting: to `C/C1=C2N=C(/C=C3N=C(/C(C)=C4\[N-][C@@](C)([C@@H]5N=C1[C@](C)(CCC(=O)NC[C@@H](C)OP(=O)([O-])O[C@H]1[C@@H](O)[C@@H](n6cnc7cc(C)c(C)cc76)O[C@@H]1CO)[C@H]5CC(N)=O)[C@@](C)(CC(N)=O)[C@@H]4CCC(N)=O)[C@@](C)(CC(N)=O)[C@@H]\3CCC(N)=O)C(C)(C)[C@@H]/2CCC(N)=O.[C-]#N.[Co+3]` belongs inactive: -1.7% [at 42.5 µM]; to `Cc1ccc([N+](=O)[O-])cc1[N+](=O)[O-]`, inactive: 2.64%; to `O=[N+]([O-])c1cccc([N+](=O)[O-])c1`, inactive: -6.2%.
Consider `N#CBr`, for which the cAMP activity change is inactive: 4.34%.

Staying with this assay, now noted: HEK293 wild type, cAMP HTRF counter-screen; at 42.5 µM (top of the series); hits give high values.
On to `OCCSCCO`, for which the cAMP activity change was inactive: -0.38%.

The assay is the same for the next values; noted with them: HEK293 wild type, cAMP HTRF counter-screen; at 92.4 µM (top of the series); hits give high values.
On to `OCCSCCO`, for which the cAMP activity change is inactive: 1.32%.

The values are drawn from PubChem BioAssay (Tox21).
